For the assay, the system named is EGFR+ DCIS epithelium. Conditions: for Median AI, DCIS / Median LI, DCIS: EGFR+ DCIS, ZD1839 10-200 mg/kg gavage from Day 14 (collapsed data).

Where two headings read alike, the source gives them in different places. Marks after values point to notes of the source that are not given here.

Take `COc1cc2ncnc(Nc3ccc(F)c(Cl)c3)c2cc1OCCCN1CCOCC1` [ZD1839, N-(3-chloro-4-fluorophenyl)-7-methoxy-6-(3-morpholinopropoxy)quinazolin-4-amine]: under “Day 14 as printed”, the “Apoptosis (AI) in ER+/EGFR+ DCIS” value is listed as 1.5 (IQR 1.3-1.6) % and the “LI in ER+/EGFR+ DCIS” value is listed as 4.6 (IQR 3.9-5.2%). Further, under “Day 21”, the “Median AI, DCIS” value was 1.47** and the “Median LI, DCIS” value is recorded as 4.6**. Besides, the “Median LI/AI, DCIS” value (Day 21, ratio of cell turnover) is 2.7***. Further, under “Day 28”, the “Median AI, DCIS” value was found to be 0.64 and the “Median LI, DCIS” value is 5.1**.

The values are drawn from patent publication US7553815B1, “Therapeutic use” (priority 1999, dated 2009).
